According to US20100215747A1, “NANOPARTICLES COMPRISING IONIZABLE, POORLY WATER SOLUBLE CELLULOSIC POLYMERS” (priority 2007, published 2010):

Procedure: By “solids concentration” is meant the amount of solid polymer added to the PBS solution to measure the solubility of the polymer in the PBS solution. An appropriate PBS solution is an aqueous solution comprising 20 mM sodium phosphate (Na2HPO4), 47 mM potassium phosphate (KH2PO4), 87 mM NaCl, and 0.2 mM KCl, adjusted to pH 6.5 with NaOH. A test to determine whether the polymer is poorly water soluble may be performed as follows. The polymer is initially present in bulk form with average particle sizes of greater than 1 micron. The solid polymer alone is added to a PBS solution to achieve a solids concentration of 0.2 mg/mL polymer in the PBS solution. The PBS solution is stirred for approximately 1 hour at room temperature. Next, a nylon 0.45 μm filter is weighed, and the polymer solution is filtered. The filter is dried overnight at 40° C., and weighed the following morning. The amount of polymer dissolved is calculated from the amount of polymer added to the PBS solution minus the amount of polymer remaining on the filter (mg).
The degree of water solubility of Polymers 2, 3, and 5 were evaluated as follows. […] The amount of dissolved polymer was calculated from amount of polymer added to the PBS solution minus the amount of polymer remaining on the filter (mg). […]

| Substance | Solubility (mg/mL) at pH 6.5 [mg/mL] |
| --- | --- |
| hydroxypropyl methylcellulose acetate succinate [CP2] | 0.2 |
| hydroxypropyl methylcellulose acetate succinate [CP1] | 0.2 |
